Measurements: patent US9464084B2, “P2X7 modulators” (Janssen Pharmaceutica NV, priority 2013, dated 2016)

The chains behind the UniProt entries cited, without tags or fusion partners. Where a name states a change or a piece, a line headed by the entry shows the natural chain unless it says otherwise.
UniProt Q99572: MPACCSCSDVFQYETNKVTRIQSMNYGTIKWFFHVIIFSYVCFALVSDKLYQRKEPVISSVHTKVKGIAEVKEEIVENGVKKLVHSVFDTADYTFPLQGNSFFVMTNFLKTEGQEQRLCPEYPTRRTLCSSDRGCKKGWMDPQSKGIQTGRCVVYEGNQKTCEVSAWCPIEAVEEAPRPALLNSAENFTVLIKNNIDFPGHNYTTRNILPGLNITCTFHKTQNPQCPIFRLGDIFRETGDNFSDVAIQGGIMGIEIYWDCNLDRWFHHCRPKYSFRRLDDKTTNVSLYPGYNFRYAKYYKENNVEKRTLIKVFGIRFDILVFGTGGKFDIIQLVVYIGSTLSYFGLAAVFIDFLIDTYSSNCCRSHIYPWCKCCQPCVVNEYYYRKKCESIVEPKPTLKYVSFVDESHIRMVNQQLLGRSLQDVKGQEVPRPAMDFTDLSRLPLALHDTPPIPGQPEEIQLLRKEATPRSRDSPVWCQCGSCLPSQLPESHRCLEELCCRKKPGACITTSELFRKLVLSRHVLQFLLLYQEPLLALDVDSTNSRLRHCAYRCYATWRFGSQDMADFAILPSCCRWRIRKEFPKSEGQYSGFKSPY

molecular target: T1, P2X7 (Homo sapiens (Human), UniProt Q99572); test: Radioligand binding, tritiated A-804598, human P2X7-1321N1 cell membranes; settings: 1 hour at 4° C.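 Also: ki obtained from the binding IC50 after correction for tracer concentration and tracer affinity.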

Ki [nM] | SMILES
1260 | C[C@H]1c2nnn(-c3ncccn3)c2CCN1C(=O)c1cccc(C(F)(F)F)c1Cl (single isomer, unassigned) [Example 87, (4S*)-5-{[2-Chloro-3-(trifluoromethyl)phenyl]carbonyl}-4-methyl-1-pyrimidin-2-yl-4,5,6,7-tetrahydro-1H-[1,2,3]triazolo[4,5-c]pyridine]
3.2 | C[C@H]1c2nnn(-c3cnccn3)c2CCN1C(=O)c1ccc(F)c(Cl)c1Cl (single isomer, unassigned) [Example 144, (S*)-(2,3-Dichloro-4-fluorophenyl)(4-methyl-1-(pyrazin-2-yl)-6,7-dihydro-1H-[1,2,3]triazolo[4,5-c]pyridin-5(4H)-yl)methanone]
31.6 | C[C@H]1c2nnn(-c3ccn(CCF)n3)c2CCN1C(=O)c1cccc(C(F)(F)F)c1Cl (single isomer, unassigned) [Example 172, (S*)-(2-Chloro-3-(trifluoromethyl)phenyl)(1-(1-(2-fluoroethyl)-1H-pyrazol-3-yl)-4-methyl-6,7-dihydro-1H-[1,2,3]triazolo[4,5-c]pyridin-5(4H)-yl)methanone]
7.9 | Cc1c(C(=O)N2CCc3c(nnn3-c3ncccn3)[C@H]2C)cccc1C(F)(F)F (single isomer, unassigned) [Example 188, (R*)-(4-methyl-1-(pyrimidin-2-yl)-6,7-dihydro-1H-[1,2,3]triazolo[4,5-c]pyridin-5(4H)-yl)(2-methyl-3-(trifluoromethyl)phenyl)methanone]
25.1 | C[C@H]1c2ncn(-c3ccccn3)c2CCN1C(=O)c1cccc(Cl)c1Cl (single isomer, unassigned) [Example 191, (S*)-(2,3-Dichlorophenyl)(4-methyl-1-(pyridin-2-yl)-6,7-dihydro-1H-imidazo[4,5-c]pyridin-5(4H)-yl)methanone]
22.4 | C[C@@H]1c2ncn(-c3ncc(F)cn3)c2CCN1C(=O)c1cccc(C(F)(F)F)c1Cl (single isomer, unassigned) [Example 193, (R*)-(2-Chloro-3-(trifluoromethyl)phenyl)(1-(5-fluoropyrimidin-2-yl)-4-methyl-6,7-dihydro-1H-imidazo[4,5-c]pyridin-5(4H)-yl)methanone]
1380 | C[C@H]1c2ncn(-c3ncc(F)cn3)c2CCN1C(=O)c1cccc(C(F)(F)F)c1Cl (single isomer, unassigned) [Example 194, (S*)-(2-Chloro-3-(trifluoromethyl)phenyl)(1-(5-fluoropyrimidin-2-yl)-4-methyl-6,7-dihydro-1H-imidazo[4,5-c]pyridin-5(4H)-yl)methanone]
31.6 | CCOc1cccnc1-n1nnc2c1CCN(C(=O)c1cccc(C(F)(F)F)c1Cl)[C@@H]2C (single isomer, unassigned) [Example 316, (R*)-(2-chloro-3-(trifluoromethyl)phenyl)(1-(3-ethoxypyridin-2-yl)-4-methyl-6,7-dihydro-1H-[1,2,3]triazolo[4,5-c]pyridin-5(4H)-yl)methanone]
126 | CC1c2ncn(-c3ncc(F)cn3)c2CCN1C(=O)c1cccc(C(F)(F)F)c1Cl (centres unmarked) [Example 22, (2-Chloro-3-(trifluoromethyl)phenyl)(1-(5-fluoropyrimidin-2-yl)-4-methyl-6,7-dihydro-1H-imidazo[4,5-c]pyridin-5(4H)-yl)methanone]
39.8 | CC1c2ncn(-c3ncccn3)c2CCN1C(=O)c1cccc(C(F)(F)F)c1Cl (centres unmarked) [Example 23, (2-Chloro-3-(trifluoromethyl)phenyl)(4-methyl-1-(pyrimidin-2-yl)-6,7-dihydro-1H-imidazo[4,5-c]pyridin-5(4H)-yl)methanone]
1380 | CCOC(=O)C1c2ncn(-c3ccccc3)c2CCN1C(=O)c1cccc(Cl)c1Cl (centres unmarked) [Example 27, Ethyl 5-(2,3-dichlorobenzoyl)-1-phenyl-4,5,6,7-tetrahydro-1H-imidazo[4,5-c]pyridine-4-carboxylate]
37.2 | O=C(c1cccc(C(F)(F)F)c1Cl)N1CCc2c(ncn2-c2ccccn2)C1CF (centres unmarked) [Example 32, (2-Chloro-3-(trifluoromethyl)phenyl)(4-(fluoromethyl)-1-(pyridin-2-yl)-6,7-dihydro-1H-imidazo[4,5-c]pyridin-5(4H)-yl)methanone]
11.7 | O=C(c1cccc(C(F)(F)F)c1Cl)N1CCc2c(nnn2-c2ccccn2)C1 [Example 63, 5-{[2-Chloro-3-(trifluoromethyl)phenyl]carbonyl}-1-pyridin-2-yl-4,5,6,7-tetrahydro-1H-[1,2,3]triazolo[4,5-c]pyridine]
200 | Cn1nc2c(c1-c1ccc(F)cc1)CCN(C(=O)c1cccc(C(F)(F)F)c1Cl)C2 [Example 105, 6-{[2-Chloro-3-(trifluoromethyl)phenyl]carbonyl}-3-(4-fluorophenyl)-2-methyl-4,5,6,7-tetrahydro-2H-pyrazolo[3,4-c]pyridine]
15.8 | O=C(c1ccc(Cl)cc1Cl)N1CCc2c(nnn2-c2ncccn2)C1 [Example 257, (2,4-dichlorophenyl)(1-(pyrimidin-2-yl)-6,7-dihydro-1H-[1,2,3]triazolo[4,5-c]pyridin-5(4H)-yl)methanone]
63.1 | CCOc1cccnc1-n1nnc2c1CCN(C(=O)c1cccc(C(F)(F)F)c1Cl)C2C (centres unmarked) [Example 258, (2-Chloro-3-(trifluoromethyl)phenyl)(1-(3-ethoxypyridin-2-yl)-4-methyl-6,7-dihydro-1H-[1,2,3]triazolo[4,5-c]pyridin-5(4H)-yl)methanone]

SMILES | Ki [nM]
C[C@@H]1c2ncn(-c3ccccn3)c2CCN1C(=O)c1cccc(C(F)(F)F)c1F (single isomer, unassigned) [Example 42, (4R*)-5-{[2-Fluoro-3-(trifluoromethyl)phenyl]carbonyl}-4-methyl-1-pyridin-2-yl-4,5,6,7-tetrahydro-1H-imidazo[4,5-c]pyridine] | 39.8

molecular target: T1, P2X7; test: Ca2+ flux (FLIPR) in 1321N1 cells expressing recombinant human P2X7 channel; format: cell-based; settings: 250 μM BzATP;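 also: Calcium-4 dye-loaded cells exposed to compound for 30 min before agonist addition, fluorescence change read 180 s after agonist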

IC50 [nM] | SMILES
5240 | C[C@H]1c2ncn(-c3ccccn3)c2CCN1C(=O)c1cccc(C(F)(F)F)c1F (single isomer, unassigned) [Example 43, (4 S*)-5-{[2-Fluoro-3-(trifluoromethyl)phenyl]carbonyl}-4-methyl-1-pyridin-2-yl-4,5,6,7-tetrahydro-1H-imidazo[4,5-c]pyridine]
149 | C[C@H]1c2ncn(-c3ccc(F)cc3)c2CCN1C(=O)c1cccc(C(F)(F)F)c1Cl (single isomer, unassigned) [Example 47]
2510 | C[C@H]1c2nnn(-c3ncccn3)c2CCN1C(=O)c1cccc(C(F)(F)F)c1Cl (single isomer, unassigned) [Example 87, (4S*)-5-{[2-Chloro-3-(trifluoromethyl)phenyl]carbonyl}-4-methyl-1-pyrimidin-2-yl-4,5,6,7-tetrahydro-1H-[1,2,3]triazolo[4,5-c]pyridine]
2030 | C[C@@H]1c2nnn(-c3ccn(CCF)n3)c2CCN1C(=O)c1cccc(C(F)(F)F)c1Cl (single isomer, unassigned) [Example 171, (R*)-(2-Chloro-3-(trifluoromethyl)phenyl)(1-(1-(2-fluoroethyl)-1H-pyrazol-3-yl)-4-methyl-6,7-dihydro-1H-[1,2,3]triazolo[4,5-c]pyridin-5(4H)-yl)methanone]
11.7 | C[C@H]1c2nnn(-c3ccn(CCF)n3)c2CCN1C(=O)c1cccc(C(F)(F)F)c1Cl (single isomer, unassigned) [Example 172, (S*)-(2-Chloro-3-(trifluoromethyl)phenyl)(1-(1-(2-fluoroethyl)-1H-pyrazol-3-yl)-4-methyl-6,7-dihydro-1H-[1,2,3]triazolo[4,5-c]pyridin-5(4H)-yl)methanone]
2.7 | Cc1c(C(=O)N2CCc3c(nnn3-c3ncccn3)[C@H]2C)cccc1C(F)(F)F (single isomer, unassigned) [Example 188, (R*)-(4-methyl-1-(pyrimidin-2-yl)-6,7-dihydro-1H-[1,2,3]triazolo[4,5-c]pyridin-5(4H)-yl)(2-methyl-3-(trifluoromethyl)phenyl)methanone]
12.2 | C[C@H]1c2ncn(-c3ccccn3)c2CCN1C(=O)c1cccc(Cl)c1Cl (single isomer, unassigned) [Example 191, (S*)-(2,3-Dichlorophenyl)(4-methyl-1-(pyridin-2-yl)-6,7-dihydro-1H-imidazo[4,5-c]pyridin-5(4H)-yl)methanone]
2510 | C[C@@H]1c2ncn(-c3ccccn3)c2CCN1C(=O)c1cccc(Cl)c1Cl (single isomer, unassigned) [Example 192, (R*)-(2,3-Dichlorophenyl)(4-methyl-1-(pyridin-2-yl)-6,7-dihydro-1H-imidazo[4,5-c]pyridin-5(4H)-yl)methanone]
662 | Cc1c(C(=O)N2CCc3c(nnn3-c3ncccn3)[C@@H]2C)cccc1C(F)(F)F (single isomer, unassigned) [Example 197, (S*)-(4-methyl-1-(pyrimidin-2-yl)-6,7-dihydro-1H-[1,2,3]triazolo[4,5-c]pyridin-5(4H)-yl)(2-methyl-3-(trifluoromethyl)phenyl)methanone]
5600 | C[C@H]1Cc2c(nnn2-c2ncc(F)cn2)CN1C(=O)c1cc(C(F)(F)F)ccc1F (single isomer, unassigned) [Example 232, (S*)-(2-fluoro-5-(trifluoromethyl)phenyl)(1-(5-fluoropyrimidin-2-yl)-6-methyl-6,7-dihydro-1H-[1,2,3]triazolo[4,5-c]pyridin-5(4H)-yl)methanone]
77.3 | CC1c2ncn(-c3ccc(F)cc3)c2CCN1C(=O)c1cccc(C(F)(F)F)c1Cl (centres unmarked) [Example 18, (2-Chloro-3-(trifluoromethyl)phenyl)(1-(4-fluorophenyl)-4-methyl-6,7-dihydro-1H-imidazo[4,5-c]pyridin-5(4H)-yl)methanone]
975 | CC1(C)c2ncn(-c3ccccc3)c2CCN1C(=O)c1cccc(C(F)(F)F)c1Cl [Example 53, 5-{[2-Chloro-3-(trifluoromethyl)phenyl]carbonyl}-4,4-dimethyl-1-phenyl-4,5,6,7-tetrahydro-1H-imidazo[4,5-c]pyridine]
1070 | O=C(c1cccc(Cl)c1Cl)N1CCc2c(-c3ccncc3)n[nH]c2C1 [Example 115, 6-[(2,3-Dichlorophenyl)carbonyl]-3-pyridin-4-yl-4,5,6,7-tetrahydro-2H-pyrazolo[3,4-c]pyridine]
1060 | Cc1cc(C)nc(-n2nnc3c2CCN(C(=O)c2cccc(Cl)c2Cl)C3C)n1 (centres unmarked) [Example 179, (2,3-dichlorophenyl)(1-(4,6-dimethylpyrimidin-2-yl)-4-methyl-6,7-dihydro-1H-[1,2,3]triazolo[4,5-c]pyridin-5(4H)-yl)methanone]

SMILES | IC50 [nM]
C[C@@H]1c2ncn(-c3ccccn3)c2CCN1C(=O)c1cccc(C(F)(F)F)c1F (single isomer, unassigned) [Example 42, (4R*)-5-{[2-Fluoro-3-(trifluoromethyl)phenyl]carbonyl}-4-methyl-1-pyridin-2-yl-4,5,6,7-tetrahydro-1H-imidazo[4,5-c]pyridine] | 55.7
C[C@@H]1c2ncn(-c3ccc(F)cc3)c2CCN1C(=O)c1cccc(C(F)(F)F)c1Cl (single isomer, unassigned) [Example 46, (4R*)-5-{[2-Chloro-3-(trifluoromethyl)phenyl]carbonyl}-1-(4-fluorophenyl)-4-methyl-4,5,6,7-tetrahydro-1H-imidazo[4,5-c]pyridine] | 60.3
Cc1nc(-n2nnc3c2CCN(C(=O)c2cccc(C(F)(F)F)c2Cl)C3C)ncc1F (single isomer, unassigned) [Example 306, (S*)-(2-chloro-3-(trifluoromethyl)phenyl)(1-(5-fluoro-4-methylpyrimidin-2-yl)-4-methyl-6,7-dihydro-1H-[1,2,3]triazolo[4,5-c]pyridin-5(4H)-yl)methanone] | 6870
C[C@H]1c2ncn(-c3ccc(F)cn3)c2CCN1C(=O)c1cccc(C(F)(F)F)c1Cl (stereo in doubt) [Example 41] | 1610
